Results: patent publication US10329299B2, “Heterocyclic compounds and uses thereof” (Infinity Pharmaceuticals, Inc., priority 2013, dated 2019)

Chains of the proteins cited; added tags and fusions are not shown.
UniProt P42336, whole entry: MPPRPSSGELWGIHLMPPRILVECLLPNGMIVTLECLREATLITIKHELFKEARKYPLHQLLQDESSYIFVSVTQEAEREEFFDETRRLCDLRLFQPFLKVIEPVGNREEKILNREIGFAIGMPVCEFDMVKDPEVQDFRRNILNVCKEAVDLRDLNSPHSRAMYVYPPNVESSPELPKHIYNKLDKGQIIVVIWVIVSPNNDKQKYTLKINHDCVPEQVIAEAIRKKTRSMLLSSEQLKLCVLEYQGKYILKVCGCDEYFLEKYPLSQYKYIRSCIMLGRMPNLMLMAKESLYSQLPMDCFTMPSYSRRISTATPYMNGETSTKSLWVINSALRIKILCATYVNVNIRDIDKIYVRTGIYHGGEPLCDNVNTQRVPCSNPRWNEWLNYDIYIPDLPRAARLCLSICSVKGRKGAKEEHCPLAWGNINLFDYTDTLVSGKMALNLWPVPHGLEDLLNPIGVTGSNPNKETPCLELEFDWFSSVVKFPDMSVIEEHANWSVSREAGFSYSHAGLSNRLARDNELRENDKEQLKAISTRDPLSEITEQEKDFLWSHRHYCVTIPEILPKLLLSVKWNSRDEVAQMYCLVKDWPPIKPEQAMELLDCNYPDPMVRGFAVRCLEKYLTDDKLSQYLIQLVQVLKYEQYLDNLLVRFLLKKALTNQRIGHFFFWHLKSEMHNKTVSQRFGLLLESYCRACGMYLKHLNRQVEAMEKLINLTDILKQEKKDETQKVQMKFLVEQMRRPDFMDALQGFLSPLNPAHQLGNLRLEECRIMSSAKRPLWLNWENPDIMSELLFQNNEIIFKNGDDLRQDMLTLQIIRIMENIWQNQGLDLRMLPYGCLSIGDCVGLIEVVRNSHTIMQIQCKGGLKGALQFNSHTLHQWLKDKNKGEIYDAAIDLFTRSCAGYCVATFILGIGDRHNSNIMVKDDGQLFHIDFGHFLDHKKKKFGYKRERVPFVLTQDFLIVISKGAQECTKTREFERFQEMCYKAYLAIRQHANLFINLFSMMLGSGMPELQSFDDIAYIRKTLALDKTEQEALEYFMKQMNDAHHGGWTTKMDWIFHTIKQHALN

Target: α isoform of human Class I PI3 kinases (Homo sapiens (Human), UniProt P42336)
Assay: PI3-Kinase Promega ADP-Glo Max assay, α isoform
Format: biochemical
Settings: read-out: PI3K α IC50

`C[C@H](NC(=O)c1c(N)nn2cccnc12)c1cc2cccc(C#Cc3cnn(C)c3)c2c(=O)n1-c1ccccc1` [Compound 21] was tested. Which IC50 did it give?
The IC50 was 5 to 10 µM.
